# Experimental data reported in DBAASP.
# What was measured:
# Assay in all cases: ≥ marks a high value that may be exact or a test limit, other limits are often not marked, values filed in µg/mL are converted to µM
# [1] = test system: Xanthomonas campestris pv. Vesicatoria 2133-2
# [2] = test system: Erwinia amylovora PMV 6076
# [3] = test system: Pseudomonas syringae pv. syringae EPS 94
SMILES,MIC [1] [µM],MIC [2] [µM],MIC [3] [µM]
CC[C@H](C)[C@H](NC(=O)CNC(=O)[C@H](CC(C)C)NC(=O)[C@H](Cc1ccc(O)cc1)NC(=O)[C@H](CCCCN)NC(=O)[C@H](CC(C)C)NC(=O)[C@@H](NC(=O)[C@H](CCCCN)NC(=O)[C@H](CCCCN)NC(=O)[C@H](Cc1ccccc1)NC(=O)[C@H](CC(C)C)NC(=O)[C@H](CCCCN)NC(=O)[C@@H](N)CCCCN)[C@@H](C)CC)C(=O)NCC(=O)N[C@@H](CCCCN)C(=O)N[C@@H](Cc1ccccc1)C(=O)N[C@@H](CC(C)C)C(=O)N[C@@H](Cc1cnc[nH]1)C(=O)N[C@@H](CO)C(=O)N[C@@H](C)C(=O)N[C@@H](CCCCN)C(=O)N[C@@H](CCCCN)C(=O)N[C@@H](CC(=O)O)C(=O)N[C@@H](CCC(=O)O)C(=O)N[C@@H](CC(C)C)C(=O)O [KKLFKKILKYLGIGKFLHSAKKDEL],3.54,6.12,3.54
CC[C@H](C)[C@H](NC(=O)[C@H](CC(C)C)NC(=O)[C@H](C)NC(=O)[C@@H]1CCCN1C(=O)[C@H](CC(C)C)NC(=O)CNC(=O)[C@@H](NC(=O)[C@@H](NC(=O)[C@H](CC(C)C)NC(=O)[C@H](Cc1ccc(O)cc1)NC(=O)[C@H](CCCCN)NC(=O)[C@H](CC(C)C)NC(=O)[C@@H](NC(=O)[C@H](CCCCN)NC(=O)[C@H](CCCCN)NC(=O)[C@H](Cc1ccccc1)NC(=O)[C@H](CC(C)C)NC(=O)[C@H](CCCCN)NC(=O)[C@@H](N)CCCCN)[C@@H](C)CC)[C@@H](C)O)[C@@H](C)O)C(=O)N[C@@H](CO)C(=O)N[C@@H](Cc1c[nH]c2ccccc12)C(=O)N[C@@H](CCCCN)C(=O)N[C@@H](CC(=O)O)C(=O)N[C@@H](CCC(=O)O)C(=O)N[C@@H](CC(C)C)C(=O)O [KKLFKKILKYLTTGLPALISWKDEL],1.77,3.54,3.54
